Screening results: PubChem BioAssay, several laboratories
Most compounds without a hit are left out; they make up all but 4.2% or so of the library.
UUG fidelity = yeast start codon fidelity modulation; activity score, % at 18.7 µM; actives 0.13% (n = 350,000); S. cerevisiae UUG-firefly luciferase reporter, luminescence/redox ratio; AID 602363;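 active means replicate mean at a twofold rise or more, about +100% in these data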;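 further: firefly luciferase made from a UUG start codon reports start codon fidelity; reporter light over untreated wells divided by growth signal over untreated wells; some hits fall short of that in this replicate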
MC4R antag cAMP = blocks human MC4R cAMP signaling; inhibition, % at 6.5 µM; MC4R-expressing cells, MTII-stimulated cAMP, LANCE TR-FRET; 360,000 compounds, 0.48% hits; P32245;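 active = inhibition above its plate's cutoff, the mean of tested wells on that plate plus 3 SD, cut at about 29% in these data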
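Material: U2OS-MC4R stable cell line | Reagent: Melanotan II challenge after compound preincubation | Doses: One concentration, 6.5 µM nominal | Incubation: 30-min compound preincubation, 1-h Melanotan II challenge, 1-h detection, room temperature | Signal: TR-FRET cAMP assay | Replicates: One well per compound, no replicates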
HDAC3 inhib = blocks human histone deacetylase 3; O15379; recombinant HDAC3, fluorogenic peptide/trypsin coupled, fluorescence; inhibition, % at 8.3 µM; 320,000 compounds, 0.15% hits; in the data active = inhibition above about 26%, passing the limit was not always enough; inconclusive = no clear call, values can overlap the other calls
ALR H2O2 inh = human ALR oxidase inhibition via reduced H2O2; P55789; purified ALR, DTT oxidation, H2O2 HRP-luminol luminescence; inhibition, % (concentration not given with the values); 290,000 compounds, 3.8% hits;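 active = mean and each replicate at 75% or more; inconclusive = only one of the two met; inactive = neither met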;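 also: stock transfer was 7.5 nL into about 7.5 µL; 0% = neutral wells and 100% = wells with inactivated enzyme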
MC4R barr agon = agonists of human melanocortin 4 receptor (MC4R) beta-arrestin. U2OS MC4R beta-arrestin complementation, luminescence; percent of melanotan II response, DMSO zero. 360,000 compounds, 0.98% hits. P32245. activation, % at 8.9 µM;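 active = activation above a per-plate cutoff, the mean activation of sample wells on that plate plus 3 SD, cut at about 8% in these data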
NALP1 inh = NALP1 inhibition. S. cerevisiae NALP1/ASC/caspase-1 growth, X-gal OD620, 72 h. inhibition, % at 10 µM. 280,000 compounds, 0.61% hits. AID 2071; in the data active = inhibition mostly above about 24%, no sharp cut-off; inactive = mostly below about 32%
Hits are given with their value; n = inactive; u = inconclusive; x = no result.

SMILES | UUG fidelity | MC4R antag cAMP | HDAC3 inhib | ALR H2O2 inh | MC4R barr agon | NALP1 inh
C(=N/N1CCN(c2ccccc2)CC1)/c1ccncc1 | x | n | n | 97 | n | n
Cn1cccc1/C=N/N1CCN(Cc2ccccc2Cl)CC1 | n | n | x | n | n | x
CN(c1ccccc1)c1ccc(/C=N/N2CCOCC2)cc1 | n | n | n | 99 | n | n
Cn1cccc1/C=N/N1CCN(c2ccccc2)CC1 | x | n | n | 94 | n | n
C[C@H](CO)N1C[C@H](C)[C@H](CN(C)C(=O)Nc2ccnc(N3CCOCC3)c2)OCc2cn(nn2)CCCC1=O | n | x | x | x | x | x
Cc1nc2c(C(=O)N3CCOCC3)cnn2c(C)c1Cc1ccc(Cl)cc1 | n | n | n | 98 | n | n
CS(=O)(=O)Nc1ccc2c(c1)[C@@H]1C[C@H](CC(=O)NCc3ccccc3)O[C@H](CO)[C@@H]1O2 | n | x | x | x | x | x
CCOC(=O)N1CCC(NC(=O)CSCc2nc(-c3ccc(C)cc3)oc2C)CC1 | n | n | n | n | n | n
O=C(CSCc1ccccc1)N1CCN(C(=O)c2ccco2)CC1 | x | n | n | n | n | n
CCOc1ccc(-c2nc(CSCC(=O)N3CCN(C(=O)c4ccco4)CC3)c(C)o2)cc1 | n | n | n | 99 | n | n
CCOC(=O)C1CCN(C(=O)CSCc2nc(-c3ccc(OCC)cc3)oc2C)CC1 | x | n | n | 99 | n | n
Cc1ccc(-c2nc(CSCC(=O)N3CCCC3)c(C)o2)cc1 | n | n | n | 99 | n | n
C[C@@H]1CN([C@H](C)CO)C(=O)Cc2cc(NC(=O)c3ccncc3)ccc2O[C@@H]1CN(C)S(=O)(=O)c1cccs1 | n | x | x | x | x | x
CN(C)C(=O)c1ccc(-c2ccc3c(c2)[C@@H]2[C@@H](CCN2C(=O)c2ccc4c(c2)OCO4)[C@H](CO)N3)cc1 | n | x | x | x | x | x
O=C(C[C@H]1C=C[C@@H](NC(=O)c2cccc(F)c2)[C@@H](CO)O1)NCCN1CCCC1 | n | x | x | x | x | x
CCOC(=O)C(CC)(CCC(=O)O)c1csc(Nc2ccc(C)cc2)n1 (stereo unspecified) | n | n | n | 99 | n | n
COCC(=O)Nc1cc(Cl)ccc1C | x | n | n | n | n | n
COC(=O)c1ccc(COC(=O)CSCC(=O)Nc2ccc(C)cc2C)cc1 | n | n | n | x | n | x
CCOC(=O)CSCC(=O)Nc1cc(C)ccc1C | x | n | n | 98 | n | n
Cc1ccc(Cl)cc1NC(=O)CSC(N)=O | n | n | n | 98 | n | n
O=C1COc2ccc(-c3csc(NCC4CCCO4)n3)cc2N1 (stereo unspecified) | n | n | n | 87 | n | n
CC(Nc1nc(-c2ccc3c(c2)NC(=O)CO3)cs1)c1ccccc1 (stereo unspecified) | x | n | 36 | 98 | n | n
COc1cccc(-c2nc(-c3ccc4c(c3)NC(=O)CO4)cs2)c1 | x | n | n | n | n | n
O=c1cc(C(F)(F)F)nc(SC/C=C/c2ccccc2)[nH]1 | n | n | n | 78 | n | n
Nc1cc(=O)[nH]c(SC/C=C/c2ccccc2)n1 | x | n | n | n | n | n
SMILES | UUG fidelity | MC4R antag cAMP | HDAC3 inhib | ALR H2O2 inh | MC4R barr agon | NALP1 inh
CCS(=O)(=O)NCC[C@@H]1CC[C@@H](NS(=O)(=O)c2cccc(F)c2)[C@H](CO)O1 | n | x | x | x | x | x
Nc1nonc1-n1nnc(C(=O)N/N=C/c2ccc(Br)cc2)c1-c1ccc2c(c1)OCO2 | n | n | n | n | 8.8 | n
CCCc1c(C(=O)N/N=C/c2c[nH]c3ccccc23)nnn1-c1nonc1N | n | n | x | x | n | x
COc1ccccc1/C=N/NC(=O)c1nnn(-c2nonc2N)c1-c1cccs1 | n | n | n | n | n | 37
COc1ccccc1/C=N/NC(=O)c1nnn(-c2nonc2N)c1-c1ccccc1 | n | n | u | n | n | n
CCCN(CCC)Cc1c(C(=O)N/N=C/c2c[nH]c3ccccc23)nnn1-c1nonc1N | n | n | 32 | x | n | n
CCOc1ccc(-c2c(C(=O)N/N=C/c3cccc(Br)c3)nnn2-c2nonc2N)cc1 | n | n | n | n | n | 37
CC(=O)N[C@@H]1CC[C@H](CCNC(=O)C2CC2)O[C@@H]1CO | n | x | x | x | x | x
COc1cc(CNc2ccc(N3CCN(C(C)=O)CC3)cc2)ccc1OCc1ccccc1 | x | n | n | 99 | n | n
COc1cc(CNc2ccc(CNc3ncn[nH]3)cc2)ccc1OCC(=O)NC(C)(C)C | x | n | n | n | n | n
COc1cc(CNc2ccc(N3CCOCC3)cc2)ccc1OCC(=O)NC(C)(C)C | n | n | n | 99 | n | n
